Results taken from ChEMBL document CHEMBL1128946, “Novel inhibitors of influenza sialidases related to GG167 structure-activity, crystallographic and Molecular dynamics studies with 4H-pyran-2-carboxylic acid 6-carboxamides” (Bioorg Med Chem Lett, 1996).

target: Neuraminidase (Influenza A virus (A/Puerto Rico/8/1934(H1N1)), UniProt P03468); assay: Inhibition of influenza A sialidase (neuraminidase); set-up: species or system Influenza A virus (strain: A/PR/8/34)

Point of comparison: `CCCCN(CCCC)C(=O)[C@@H]1OC(C(=O)O)=C[C@H](N)[C@H]1NC(C)=O`, IC50 450 nM. Against it:
- CC(=O)N[C@@H]1[C@@H](N)C=C(C(=O)O)O[C@H]1C(=O)N(C)C — 5.3-fold higher, 2400 nM
- CCCCCCCCCN(CCC)C(=O)[C@@H]1OC(C(=O)O)=C[C@H](N)[C@H]1NC(C)=O — 20-fold lower, 23 nM
- CCCN(CCc1ccccc1)C(=O)[C@@H]1OC(C(=O)O)=C[C@H](N)[C@H]1NC(C)=O — 90-fold lower, 5 nM
